The experiment has as its target purified kinase domain of CaMKIIα (residues 6–274 with a kinase null D135N mutation) (Homo sapiens, UniProt Q9UQM7, D135N). Nature of the experiment: fluorescence polarization assay of Tiam1 peptide binding to CaMKII kinase domain.

Amino acid sequences for entries named in this document (tags omitted). Residues count along the entry.
UniProt Q9UQM7, 6-274 D135N: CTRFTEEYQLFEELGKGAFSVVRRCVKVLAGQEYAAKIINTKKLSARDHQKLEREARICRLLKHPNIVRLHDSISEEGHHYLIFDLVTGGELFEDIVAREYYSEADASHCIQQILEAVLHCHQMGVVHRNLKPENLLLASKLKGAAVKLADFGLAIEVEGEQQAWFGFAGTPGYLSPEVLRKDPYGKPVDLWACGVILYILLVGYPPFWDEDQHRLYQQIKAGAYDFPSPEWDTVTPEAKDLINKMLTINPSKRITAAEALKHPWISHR

Each structure is given as a SMILES string.

On to `CSCC[C@H](NC(=O)[C@H](CCCNC(=N)N)NC(=O)[C@H](CO)NC(=O)[C@H](C)NC(=O)[C@H](Cc1c[nH]cn1)NC(=O)[C@H](CO)NC(=O)[C@H](CC(=O)O)NC(=O)[C@H](CC(C)C)NC(=O)[C@@H](NC(=O)[C@H](CCCNC(=N)N)NC(=O)c1ccc2c(c1)C(=O)OC21c2ccc(O)cc2Oc2cc(O)ccc21)[C@@H](C)O)C(=O)N[C@H](C(=O)N[C@@H](CCC(N)=O)C(=O)N[C@@H](CC(C)C)C(=O)N[C@@H](CCCCN)C(=O)N[C@@H](CCCCN)C(=O)N[C@@H](CCC(N)=O)C(=O)N[C@@H](C)C(=O)N[C@@H](C)C(N)=O)[C@@H](C)O` [fluorescently labelled Tiam1 peptide, fluorescein-RTLDSHASRMTQLKKQAA-amide], for which the Kd was 8.1 ± 1.7 µM.

(Values after publication PMC6669903 (Neuron, 2019).)
